Among the data in ChEMBL document CHEMBL1772956, “Synthesis and binding affinity of novel mono- and bivalent morphinan ligands for κ, μ, and δ opioid receptors” (Bioorg Med Chem, 2011) are Ratio Ki values, retold here.

The species entered for test [1] is Homo sapiens. As to the kind of experiment: Selectivity ratio of Ki for human kappa opioid receptor over Ki for human mu opioid receptor. A digest of the protocol: (§1)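 Competition binding used CHO membranes stably expressing human κ, μ or δ receptor with 12 compound concentrations in 50 mM Tris-HCl pH 7.5 at 25°C. The radioligands were κ [3H]U69,593 for 60 min, μ [3H]DAMGO for 60 min and δ [3H]naltrindole for 3 h. […] Samples were GF/B filtered and counted by scintillation. IC50 came from log-probit analysis and was converted to Ki by Cheng-Prusoff, from three experiments in triplicate.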

The species entered for test [2] is Homo sapiens. Put plainly: Selectivity ratio of Ki for human kappa opioid receptor over Ki for human delta opioid receptor. Put shortly: as §1

For the molecule `Oc1ccc2c(c1)[C@@]13CCCC[C@H]1[C@@H](C2)N(CC1CCC1)CC3`, the Ratio Ki was determined as 3 in the test filed under Homo sapiens [1] and 75 in the test listed under Homo sapiens [2].
